# Assay results taken from ChEMBL document CHEMBL1126758, “Synthesis and structure-activity studies of a series of spirooxazolidine-2,4-diones: 4-oxa analogues of the muscarinic agonist 2-ethyl-8-methyl-2,8-diazaspiro[4.5]decane-1,3-dione” (J Med Chem, 1993).
# Tests used:
# [1] = Minimum dose required for subcutaneous administration to improve scopolamine-induced impairment of passive avoidance task in mouse(anti-amnesic effect)
# [2] = system: Muscarinic acetylcholine receptors M1 & M2 (Rattus norvegicus); experiment: The ratio of Ki for M2 receptor to the Ki for M1 receptor was determined
SMILES,MED [1],M2/M1 Index [2]
CN1CCC2(CC1)OC(=O)N(C(C)(C)C)C2=O,> 30 mg/kg,
CCN1C(=O)C2(CCN(C)CC2)OC1=S,0.3 mg/kg,4.8
CCN1C(=O)OC2(CCN(Cc3ccccc3)CC2)C1=O,30 mg/kg,
COC(=O)CN1C(=O)OC2(CCN(C)CC2)C1=O,> 30 mg/kg,
CN1CCC2(CC1)OC(=S)N(C(C)(C)C)C2=O.Cl,0.3 mg/kg,10
CN1CCC2(CC1)OC(=S)N(c1ccccc1)C2=O,> 30 mg/kg,
